Experiments:
[1] = system: GM-CSF differentiated BMDC; test: FACS analysis of uptake by GM-CSF differentiated BMDC; type: cell-based, Murine; conditions: incubated on ice at 1 nM and 10 nM, n=1
Experimental: Graphs show uptake after overnight incubation in various primary cells. "DBCO: 40" (^Cy5HSA-(DBCO)40) serves as positive control for unspecific uptake because a) DBCO groups can intercalate into the cell membrane and promote thereby cell internalization and b) so far we can only convert 80% of DBCO groups in the Click reaction with the TM - Therefore, some "free" DBCO groups are always existent, even though it is likely that they are buried within hydrophobic pockets of HSA since they are not reacting with N3-TM.
Saturation of TM-mediated uptake from around 20 TM/HSA on. Concentration series uptake (top right) confirms saturation of cells since no increased uptake is observed in increased concentrations.
(A,B) GM-CSF- or (C-E) FLT3L-differentiated BMDC were incubated with nanocarriers or R848 (1 µg/ml) o.n., stained and subjected to flow cytometric analyses. GM-CSF differentiated BMDC were discriminated as follows: FVD^-CD11c^+. FLT3L-differentiated cells were discriminated as described in Fig. 18-20. n=4. (A) MFI of surface activation marker CD86 expression. (B-E) MFI of Cy5 signal (nanocarrier binding or uptake). […]
Flow cytometry. […] Following this, samples were incubated with fluorescence-labeled antibodies (20 min, 4 °C). […] Measurements were carried out using an Attune NxT flow cytometer and data were analyzed using Attune NxT software (both Thermo Fisher, Waltham, MA, USA)

[2] = Fluorescence correlation spectroscopy (FCS), hydrodynamic radius in water and blood plasma; type: physicochemical; conditions: for increase in hydrodynamic radius after incubation in blood plasma: indicates no major protein corona formation
[3] = Dynamic light scattering (DLS) size determination; type: physicochemical; conditions: 1 mg/mL, 25 °C, PBS or MQ (volume distribution in PBS used)
Experimental: DLS measurements of the compounds (1mg/mL in PBS or MQ) were performed at 25 °C using a Malvern ZetaSizer Nano S purchased from Malvern Instruments Ltd. (Malvern, Great Britain) with a He/Ne Laser (λ = 633 nm) and a narrow band filter at a fixed scattering angle of 173°. Volume distribution of DLS measurements of nanocarriers in PBS was used to determine their size range.

CHO^MMR+ cells = test: Cell uptake by confocal microscopy; type: cell-based, chinese hamster; conditions: 1µM for 24 hours
Experimental: (§1) CHO cells were obtained from Prof. Lutz Nuhn. These cells were transfected as described in Martinez-Pomares et al., 2003, Journal of Leukocyte Biology (73), 604-613.
CHO^MMR+ cells were incubated with ^SCy5HSA-(TM)34.1 1µM for 24 hours and then analysed at confocal microscopy.

CHO-K1 cells (MMR-) = test: Cell uptake by FACS / flow cytometry, MMR-negative cells; type: cell-based, chinese hamster; conditions: 24h, 0.1 µM
Excerpt: (§2) Uptake Efficiency correlated positively with amount of TM on HSA surface. HSA without trimannose (Ctrl) was not uptaken in neither cell line (Figure 11).
(§3) Increased TM-Amount on HSA correlates positively with increased uptake. 3-10 TM groups / HSA were sufficient for this transfected cell line. For further studies the inventor still chose >30 TM groups/HSA because a) they stabilize the carrier during denaturation for loading procedure due to hydrophilicity b) they support backfolding after drug loading (hydrophilic parts outside).

CHO^MMR+ = test: Cell uptake by FACS / flow cytometry, MMR-positive cells; type: cell-based, chinese hamster; conditions: 24h, 0.1 µM
Excerpt: as §1, §2, §3

TM-^Cy5HSA-Benzyl: dye-labeled HSA with TM on the surface, completely denatured, decoy-loaded and backfolded; Benzyl:HSA = 25.2 : 1
time-dependant uptake [1]: extremely fast association/uptake
calculated hydrodynamic radius ([2]; in water): 12 nm
increase in hydrodynamic radius after incubation in blood plasma [2]: only a slight increase
increase in hydrodynamic radius after incubation in blood plasma ([2]; listed as benzyl (decoy) loaded HSA nanocarrier): no major increase
sizes (d.nm), volume distribution [3]: 9.51 ± 2.76 nm

TM-^Cy7.5HSA-Benzyl: Sulfo-Cy7.5 labeled HSA with TM on the surface, decoy-loaded and backfolded; Benzyl-HSA = 12 : 1
sizes (d.nm), volume distribution [3]: 12.73 ± 9.75 nm

TM-^Cy7.5HSA-TM: probably unloaded trimannosylated Sulfo-Cy7.5 labeled HSA (Figure 8 legend)
sizes (d.nm), volume distribution [3]: 10.71 ± 2.85 nm

^Cy5HSA-(TM)34.1: dye-labeled HSA with TM groups clicked to the DBCO on the surface (dye-labeled mannosylated HSA), about 34 TM per HSA
uptake (red fluorescence signal) (CHO^MMR+ cells): efficiently uptaken

^Cy5HSA: Sulfo-Cy5 labeled HSA with ring-opened maleimide, without trimannose and without cargo (control)
uptake (Cy5 fluorescence) (CHO-K1 cells (MMR-)): not uptaken
uptake (Cy5 fluorescence) (CHO^MMR+): not uptaken

Reference: patent EP4603108A1, “HUMAN SERUM ALBUMIN BASED NANOCARRIERS FOR TARGETED IMMUNOTHERAPY” (Max-Planck-Gesellschaft zur Förderung der Wissenschaften …, priority 2024, dated 2025)
